Source: patent publication US9375965B2, “Marking compound” (priority 2011, dated 2016)

Settings: crystals in water

tetra-triethanolammonium octamolybdate [TEA-OM]
Solubility in water: readily dissolve in water
